Amino acid sequences for entries named in this document (tags omitted). A change or cut given only in a name is not applied to a line headed by its entry.
UniProt Q96PN6: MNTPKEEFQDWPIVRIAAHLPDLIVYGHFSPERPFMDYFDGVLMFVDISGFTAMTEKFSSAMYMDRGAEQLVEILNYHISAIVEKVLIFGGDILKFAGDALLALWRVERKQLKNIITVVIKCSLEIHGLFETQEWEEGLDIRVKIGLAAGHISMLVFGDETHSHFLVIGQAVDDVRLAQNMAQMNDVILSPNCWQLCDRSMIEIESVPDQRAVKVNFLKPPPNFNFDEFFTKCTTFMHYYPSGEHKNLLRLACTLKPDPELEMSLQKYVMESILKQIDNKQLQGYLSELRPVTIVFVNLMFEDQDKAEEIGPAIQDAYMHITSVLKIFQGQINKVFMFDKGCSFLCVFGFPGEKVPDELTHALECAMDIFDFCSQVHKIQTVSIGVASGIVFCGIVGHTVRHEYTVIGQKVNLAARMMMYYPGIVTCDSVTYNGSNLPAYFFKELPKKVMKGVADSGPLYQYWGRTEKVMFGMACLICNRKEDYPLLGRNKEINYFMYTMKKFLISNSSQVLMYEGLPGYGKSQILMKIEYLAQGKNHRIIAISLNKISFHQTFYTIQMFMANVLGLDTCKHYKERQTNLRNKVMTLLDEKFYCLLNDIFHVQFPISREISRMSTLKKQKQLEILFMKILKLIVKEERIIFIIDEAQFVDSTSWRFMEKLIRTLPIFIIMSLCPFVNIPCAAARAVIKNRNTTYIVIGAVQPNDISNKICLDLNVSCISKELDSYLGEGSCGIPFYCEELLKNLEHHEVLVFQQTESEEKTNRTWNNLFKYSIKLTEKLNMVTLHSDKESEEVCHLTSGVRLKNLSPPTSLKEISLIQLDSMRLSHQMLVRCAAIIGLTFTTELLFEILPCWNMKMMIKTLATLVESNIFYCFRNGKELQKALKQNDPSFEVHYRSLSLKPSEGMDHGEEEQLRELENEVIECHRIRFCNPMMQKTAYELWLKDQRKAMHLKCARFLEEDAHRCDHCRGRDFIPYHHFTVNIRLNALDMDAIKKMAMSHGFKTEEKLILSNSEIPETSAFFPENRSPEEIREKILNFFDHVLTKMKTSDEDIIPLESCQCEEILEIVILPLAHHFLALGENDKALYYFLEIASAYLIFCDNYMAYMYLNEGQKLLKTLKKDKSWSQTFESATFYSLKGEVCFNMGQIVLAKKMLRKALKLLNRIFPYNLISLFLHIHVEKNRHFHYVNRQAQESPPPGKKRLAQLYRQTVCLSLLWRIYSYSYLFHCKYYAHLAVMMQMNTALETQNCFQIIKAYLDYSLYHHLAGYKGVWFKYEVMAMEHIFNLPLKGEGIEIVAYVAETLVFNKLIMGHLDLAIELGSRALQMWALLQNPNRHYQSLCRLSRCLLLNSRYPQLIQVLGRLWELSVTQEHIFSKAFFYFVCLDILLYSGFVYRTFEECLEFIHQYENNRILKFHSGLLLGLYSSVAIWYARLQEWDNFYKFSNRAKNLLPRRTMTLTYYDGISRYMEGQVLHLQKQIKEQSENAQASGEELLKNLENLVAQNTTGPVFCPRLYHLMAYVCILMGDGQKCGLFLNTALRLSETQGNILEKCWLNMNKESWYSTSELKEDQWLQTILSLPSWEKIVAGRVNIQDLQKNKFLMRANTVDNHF

According to patent US20240239774A1, “SOLUBLE ADENYLYL CYCLASE (SAC) INHIBITORS AND USES THEREOF” (Cornell University, priority 2021, published 2024):

Biological target: purified recombinant human sAC protein (Homo sapiens, UniProt Q96PN6)
Assay: biochemical
Format: biochemical
Conditions: 1 mM ATP, 2 mM CaCl2, 4 mM MgCl2, 40 mM NaHCO3
Description: Assays for sAC activity using purified protein were performed in 100 μl reactions containing 4 mM MgCl2, 2 mM CaCl2, 1 mM ATP, 40 mM NaHCO3, 50 mM Tris pH 7.5, and 3 mM DTT. Each reaction contained ˜1,000,000 counts of α-^32P labeled ATP.
All in vitro adenylyl cyclase activity assays were performed via the “two-column” method measuring the conversion of [α-^32P] ATP into [^32P] cAMP, as previously described [References 81, 82]. Briefly, human sACt protein [Reference 21] was incubated in buffer containing 50 mM Tris-HCl, pH 7.5, 4 mM MgCl2, 2 mM CaCl2, 1 mM ATP, 3 mM DTT, 40 mM NaHCO3 in the presence of the indicated concentrations of different sAC inhibitors or vehicle (DMSO).

Row | IC50 [nM] | SMILES
1 | 6 | Nc1nc(Cl)cc(-c2nn(C(F)F)cc2Cc2cc(CN3CCOCC3)ccc2C2CC2)n1 [Example 157, 4-chloro-6-[4-[[2-cyclopropyl-5-(morpholinomethyl)phenyl]methyl]-1-(difluoromethyl)pyrazol-3-yl]pyrimidin-2-amine]
2 | 20 | Nc1nc(Cl)cc(-c2nn(C(F)F)cc2Cc2ccccc2OC2CCC2)n1 [Example 158]
3 | 50 | Nc1nc(Cl)cc(-c2nn(C(F)F)cc2Cc2ccccc2C2CC2)n1 [Example 159]
4 | 60 | Nc1nc(Cl)cc(-c2nn(C(F)F)cc2Cc2ccccc2OC(F)(F)F)n1 [Example 160]
5 | 16 | COc1ccccc1Cc1cn(C(F)F)nc1-c1cc(Cl)nc(N)n1 [Example 161]
6 | 12 | Cc1oc(=O)oc1COC(=O)[C@H]1COCCN1CCOc1ccccc1Cc1cn(C(F)F)nc1-c1cc(Cl)nc(N)n1 [Example 163]
7 | 50 | Cc1oc(=O)oc1COC(=O)[C@@H]1COCCN1CCOc1ccccc1Cc1cn(C(F)F)nc1-c1cc(Cl)nc(N)n1 [Example 166, (5-methyl-2-oxo-1,3-dioxol-4-yl)methyl (3S)-4-[2-[2-[[3-(2-amino-6-chloro-pyrimidin-4-yl)-1-(difluoromethyl)pyrazol-4-yl]methyl]phenoxy]ethyl]morpholine-3-carboxylate]
8 | 10 | Nc1nc(Cl)cc(-c2nn(C(F)F)cc2Cc2ccccc2OCCN2CCN(CCO)CC2=O)n1 [Example 170, 1-[2-[2-[[3-(2-amino-6-chloro-pyrimidin-4-yl)-1-(difluoromethyl)pyrazol-4-yl]methyl]phenoxy]ethyl]-4-(2-hydroxyethyl)piperazin-2-one]
9 | 25 | Cn1cc(Cc2cc(F)ccc2OCCN2CCNC(=O)C2)c(-c2cc(Cl)nc(N)n2)n1 [Example 171]
10 | 350 | Cn1nc(-c2cc(Cl)nc(N)n2)c(Cc2ccccc2)c1COCC(O)CO (centres unmarked) [Example 172]
11 | 8 | Nc1nc(Cl)cc(-c2nn(C(F)F)cc2Cc2ccccc2OCCN(CCO)CC(=O)O)n1 [Example 173, 2-[2-[2-[[3-(2-amino-6-chloro-pyrimidin-4-yl)-1-(difluoromethyl)pyrazol-4-yl]methyl]phenoxy]ethyl-(2-hydroxyethyl)amino]acetic acid]
12 | 25 | Cn1cc(Cc2cccc(F)c2OCCN2CCNC(=O)C2)c(-c2cc(Cl)nc(N)n2)n1 [Example 174]
13 | 20 | Cn1cc(Cc2ccccc2OCCN2CC(CO)(CCl)C2)c(-c2cc(Cl)nc(N)n2)n1 [Example 175, [1-[2-[2-[[3-(2-amino-6-chloro-pyrimidin-4-yl)-1-methyl-pyrazol-4-yl]methyl]phenoxy]ethyl]-3-(chloromethyl)azetidin-3-yl]methanol]
14 | 1730 | Cn1cc(Cc2ccccc2OCCN2CCOCC2)c(-c2cc(C(F)(F)F)nc(N)n2)n1 [Example 176, 4-[1-methyl-4-[[2-(2-morpholinoethoxy)phenyl]methyl]pyrazol-3-yl]-6-(trifluoromethyl)pyrimidin-2-amine]
15 | 32 | Cc1c(Cc2ccccc2OCCN2CCOCC2)c(-c2cc(Cl)nc(N)n2)nn1C [Example 177]
16 | 467 | Nc1nc(Cl)cc(-c2nn(C(F)F)cc2Cc2ccccc2OCCN2CCS(=O)(=O)CC(O)C2)n1 (centres unmarked) [Example 180]
17 | 30 | Nc1nc(Cl)cc(-c2nn(C(F)F)cc2Cc2ccccc2OCCN2CCS(=O)(=O)CC(O)C2)n1 (centres unmarked) [Example 181]
